Tested on: Pseudomonas syringae pv maculicola ES4326 (Psm lux)
Assay type: in vivo
Conditions: fmo1 mutant; 10 μmol via soil 1 d before Psm lux

SMILES: O=C(O)[C@@H]1CCCCN1 [Pip, (S)-piperidine-2-carboxylic acid]
- disease resistance of fmo1 plants after pre-treatment: remained susceptible
